The subject of this experiment is fibrosarcoma (HT-1080) xenografts. The experiment in a line: HT-1080 fibrosarcoma xenograft in athymic nude mice with alginate TAG. The settings on record: half of the mice euthanized at 88 dpi; other half followed until end of study (118 dpi).

For the molecule `COc1cccc2c1C(=O)c1c(O)c3c(c(O)c1C2=O)CC(O)(C(=O)CO)CC3OC1CC(NC(=O)OC2C=CCCCCC2)C(O)C(C)O1` (stereo not shown) [TCO-doxorubicin], the “tumor status of surviving half of cohort” value is given as “did not show any detectable signs of tumors”.

Source of the values: patent US12296017B2, “Bioorthogonal compositions” (TAMBO, INC., priority 2017, dated 2025).
